# Data as given in PubChem BioAssay AID602144 (Vanderbilt Specialized Chemistry Center, 2011).
# Chains of the proteins cited; added tags and fusions are not shown.
# UniProt Q13393, whole entry, looked up: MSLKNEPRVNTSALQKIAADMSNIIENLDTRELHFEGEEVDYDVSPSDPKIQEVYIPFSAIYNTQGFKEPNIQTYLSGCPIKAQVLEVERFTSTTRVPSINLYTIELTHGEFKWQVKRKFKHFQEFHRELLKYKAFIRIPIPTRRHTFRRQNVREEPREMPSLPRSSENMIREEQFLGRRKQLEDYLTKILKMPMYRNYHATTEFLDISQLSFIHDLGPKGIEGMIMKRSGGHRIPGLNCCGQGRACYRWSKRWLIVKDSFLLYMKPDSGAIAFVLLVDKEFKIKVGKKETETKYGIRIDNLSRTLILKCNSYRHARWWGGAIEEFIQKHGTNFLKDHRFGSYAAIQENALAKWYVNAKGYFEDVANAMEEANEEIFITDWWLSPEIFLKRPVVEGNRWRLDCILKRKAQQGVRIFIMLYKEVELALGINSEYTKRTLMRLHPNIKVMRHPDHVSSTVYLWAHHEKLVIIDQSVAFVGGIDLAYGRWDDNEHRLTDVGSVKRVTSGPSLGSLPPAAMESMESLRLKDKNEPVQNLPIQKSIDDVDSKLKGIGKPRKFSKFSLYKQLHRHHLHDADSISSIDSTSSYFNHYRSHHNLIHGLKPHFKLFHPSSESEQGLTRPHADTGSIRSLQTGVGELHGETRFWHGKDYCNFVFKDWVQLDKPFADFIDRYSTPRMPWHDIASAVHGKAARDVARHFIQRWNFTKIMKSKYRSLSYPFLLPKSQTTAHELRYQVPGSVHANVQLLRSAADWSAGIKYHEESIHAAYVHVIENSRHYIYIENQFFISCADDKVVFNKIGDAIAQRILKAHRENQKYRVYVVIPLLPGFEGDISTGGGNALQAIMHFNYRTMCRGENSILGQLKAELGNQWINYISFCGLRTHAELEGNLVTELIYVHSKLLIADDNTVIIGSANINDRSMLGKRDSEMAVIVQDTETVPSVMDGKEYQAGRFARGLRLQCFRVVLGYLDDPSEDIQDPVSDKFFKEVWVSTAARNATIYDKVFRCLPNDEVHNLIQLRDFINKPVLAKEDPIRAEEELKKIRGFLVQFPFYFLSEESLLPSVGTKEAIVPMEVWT
# This is a selection; strong and weak results do not stand in their true shares. Calls of active or inactive are those of the source. Cut-off read from the data, not from the text of the source: active = remaining activity below about 50%; inactive = the rest.
# Target: Phospholipase D1 (Homo sapiens) (UniProt Q13393)
# Test: PLD1 inhibitors in cells, Calu-1 cells, single concentration (AID 602144);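 note: tested at 200 nM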
# Conditions: cellular PLD1 activity, hits give low values
compound,measurement,value
O=C(CN1CCC(n2c(=O)[nH]c3ccccc32)CC1)c1ccccc1,remaining activity,inactive: 119%
